These results are taken from PubChem BioAssay AID588334 (Broad Institute, 2011).

The list shows a part of the results, in another mix than the full data. Active and inactive are the calls of the source.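 How the source made its calls: active means mean activation of at least 80% with every replicate also reaching 80%; inconclusive means mean reaches 80% but some replicate falls short; inactive means the rest.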

This assay can be described thus: activators of MITF-driven TRPM1 promoter reporter, primary screen, cell-based, SK-MEL-5, luciferase, single point (AID 588334).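 Further: 0% = neutral control wells and 100% = parthenolide positive control wells.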 Conditions: SK-MEL-5 TRPM1-promoter luciferase, 24 h; at 12.5 µM; stronger effect = higher value; % of positive control, neutral wells = 0.
Take `C[C@@H]1C=CCP(=O)(Oc2ccccc2)O1` (stereo not given in full): the activation was inactive: 1.36%.

For `CC(=O)c1ccc(N2CC2c2ccncc2)cc1` (stereo not given), the activation is inactive: -12.7%.

Consider `N#C/C(=C\c1ccc(N(CCBr)CCBr)cc1)C(N)=O`, for which the activation was inactive: -0.356%.

Turning to `COC(=O)C1(C)COP(=O)(NCc2ccccc2)OC1` (stereo not given), the activation is inactive: 4.5%.

As for `Cc1cccc(OCC(=O)OC2CN3CCC2CC3)c1` (stereo not given), the activation was inactive: -3.91%.

As to `O=[As](O)(c1cccc(O)c1)c1cccc(O)c1`, the activation is inactive: -3.28%.

For the compound `O=[As](O)(O)c1cccnc1`, the activation was inactive: -10.4%.

As for `COc1cc(C(=O)NCC2(N3CCOCC3)CCCCC2)cc(Cl)c1OC(C)C`, the activation was inactive: -9.97%.

Consider `CS(=O)(=O)c1ccc(Cl)c(NC(=O)COC(=O)C(O)(c2ccccc2)c2ccccc2)c1`, for which the activation is inactive: -2.9%.

With `COc1cc(C2NCCC3(OCCO3)C2(C)C)cc(OC)c1OC` (stereo not given), the activation was inactive: 0.514%.

As to `CCOP(=O)(Nc1cccc2ccccc12)OCC`, the activation was inactive: -5.12%.

`Cc1ccc(NCCc2c([N+](=O)[O-])cc([N+](=O)[O-])cc2[N+](=O)[O-])cc1`: the activation was inactive: -7.04%.

For the compound `Nc1cccc2c([As](=O)(O)O)cccc12`, the activation was inactive: 13.1%.

Regarding `CCCOP(=S)(Nc1nc(N)cc(=O)[nH]1)OCCC`, the activation is inactive: -5.7%.

As for `Nc1ccccc1[As](=O)(O)c1ccccc1`, the activation was inactive: -8.7%.

Regarding `O=C(O)COc1ccc([As](=O)(O)O)cc1[N+](=O)[O-]`, the activation is inactive: -1.08%.

On to `CCOP1(=S)c2c(C)nn(CCC#N)c2N=C(c2ccccc2F)N1C` (stereo not given), for which the activation is inactive: -0.599%.

For the compound `O=P(Nc1nccs1)(Oc1ccccc1)Oc1ccccc1`, the activation was inactive: -0.54%.

In the case of `O=P(Nc1nccs1)(c1ccccc1)c1nc2ccccc2s1` (stereo not given), the activation was inactive: -11.2%.

With `CS(=O)(=O)c1cc([N+](=O)[O-])c2no[n+]([O-])c2c1`, the activation is inactive: -11.8%.

With `N#CCCN(C(=O)COC(=O)C(O)(c1ccccc1)c1ccccc1)c1ccc(F)cc1`, the activation is inactive: -2.27%.

In the case of `CCOP1(=S)c2c(C)nn(CCC#N)c2N=C(c2ccc(F)cc2)N1C` (stereo not given), the activation is inactive: -9.65%.

`CN(C(=O)Cc1ccccc1)[C@@H]1CC[C@]2(CCCO2)C[C@H]1N1CCCC1`: the activation is inactive: 14.3%.

`O=[N+]([O-])c1ccc2c(c1)nnn2O`: the activation was inactive: -5.25%.

Consider `CN(C(=O)Cc1ccc(Cl)c(Cl)c1)[C@H]1CC[C@@]2(CCCO2)C[C@@H]1N1CCCC1`, for which the activation was inactive: 9.08%.

In the case of `NC(=O)Nc1ccc([As](=O)(O)O)cc1`, the activation was inactive: 1.5%.

With `CN(C)C1(CNC(=O)c2ccc(S(C)(=O)=O)cc2)CCCCC1`, the activation is inactive: -8.74%.

In the case of `CCCC1OP(=O)(Nc2ccccc2)OCC1CC` (stereo not given), the activation was inactive: 10.6%.

For `Cc1nn(-c2ccccc2)c2c1P(=O)(N1CCOCC1)N(C)C(c1ccccc1)=N2` (stereo not given), the activation was inactive: 0.216%.

For the compound `CC1CCC(C(C)C)C(OP(=O)(Nc2ccccn2)c2ccccc2)C1` (stereo not given), the activation was inactive: -0.875%.

As for `Cc1ccc(C(=O)OC2CN3CCC2CC3)cc1` (stereo not given), the activation is inactive: -1.35%.

Regarding `Nc1cccc([As](=O)(O)c2ccccc2)c1`, the activation is inactive: 7.63%.

On to `Cc1ccc(OCC(=O)OC2CN3CCC2CC3)cc1` (stereo not given), for which the activation was inactive: 5.78%.

In the case of `O=[As](O)(c1cccs1)c1cccs1`, the activation was inactive: -8.81%.

For the compound `O=P1(Nc2ccc(Br)cn2)COc2ccccc2OC1`, the activation was inactive: -11.2%.

For `CC(C)(C)C(=O)NC(Sc1ncccn1)C(Cl)(Cl)Cl` (stereo not given), the activation is inactive: -25.8%.

On to `CCOP(=O)(NC(=NC(C)c1ccccc1)NC(C)c1ccccc1)OCC` (stereo not given), for which the activation is inactive: -3.11%.

`CCOP(=O)(Nc1ccc(C)cn1)OCC`: the activation was inactive: -9.73%.

`CC(C)/C=N\N=C(\N)N[N+](=O)[O-]`: the activation is inactive: -4.77%.

On to `CN(C(=O)Cc1ccc(Cl)c(Cl)c1)[C@@H]1CCCC[C@H]1N1CCCC1`, for which the activation was inactive: 7.17%.

`CC1(CBr)Cn2c(nc3ccccc3c2=O)S1` (stereo not given): the activation is inactive: -1.77%.

Take `COc1ccccc1CNC(=O)COC(=O)C(O)(c1ccccc1)c1ccccc1`: the activation was inactive: 7.6%.

On to `O=C(COc1ccccc1)OC1CN2CCC1CC2` (stereo not given), for which the activation is inactive: -6.09%.

Take `O=C(Nc1ccncc1[N+](=O)[O-])c1ccc([N+](=O)[O-])cc1[N+](=O)[O-]`: the activation is inactive: -20%.

On to `COP1(=S)c2c(C)nn(CCC#N)c2N=C(c2ccc(F)cc2)N1C` (stereo not given), for which the activation is inactive: 0.723%.

In the case of `CCC(C)N(CC(C)C)C(=S)SC(NC(C)=O)C(Cl)(Cl)Cl` (stereo not given), the activation was inactive: -24.3%.

As for `CCCCOc1ccc(C(=O)NCC2(N3CCCCC3)CCCCC2)cc1OC`, the activation was inactive: 13.2%.

With `Cc1cc(SC(NC(=O)c2ccccc2)C(Cl)(Cl)Cl)nc(C(C)C)n1` (stereo not given), the activation was inactive: -6.81%.

`CCOC(=O)Nc1ccc([As](=O)(O)O)c(O)c1`: the activation was inactive: -1.47%.

For `CC1CCNP(=O)(N(CCCl)CCCl)O1` (stereo not given), the activation is inactive: -7.21%.

For `O=P(Nc1ccccn1)(c1cccc2ccccc12)c1cccc2ccccc12`, the activation was inactive: 7%.

Consider `Cc1cc(SC(NC=O)C(Cl)(Cl)Cl)ncn1` (stereo not given), for which the activation is inactive: -1.3%.

`O=[N+]([O-])c1ccc(Nc2ccc(Oc3ccc([N+](=O)[O-])cc3[N+](=O)[O-])cc2)c([N+](=O)[O-])c1`: the activation was inactive: 6.75%.

In the case of `CCOC(=O)Nc1cccc([As](=O)(O)O)c1`, the activation was inactive: 2.01%.

For the compound `Cc1ccc(OP(=O)(Nc2ccc([N+](=O)[O-])cn2)Oc2ccc(C)cc2)cc1`, the activation is inactive: -13%.

On to `Cc1ccc2nc3c(c(C)c2c1)CC(C(Cl)Cl)S3` (stereo not given), for which the activation is inactive: 8.17%.

Take `C[As](=O)(O)c1cccc(C(=O)O)c1`: the activation is inactive: 5.65%.

Consider `O=[As](O)(c1ccc(O)cc1)c1ccccc1O`, for which the activation was inactive: 12.7%.

On to `O=[N+]([O-])c1ccc(-c2cc([N+](=O)[O-])c(O)c([N+](=O)[O-])c2)cc1`, for which the activation was inactive: -1.52%.

Regarding `COc1cc(C(=O)NCC2(N3CCOCC3)CCCCC2)ccc1OCC(C)C`, the activation was inactive: 10.7%.

For `CC(C)NC(=O)NP(=O)(Oc1ccccc1)Oc1ccccc1`, the activation was inactive: 6.99%.

For `CCN(CC)C(=S)SC(NC=O)C(Cl)(Cl)Cl` (stereo not given), the activation is inactive: -37%.

`O=C(OC1CN2CCC1CC2)c1cccc2[nH]cnc12` (stereo not given): the activation is inactive: -10.9%.

Take `O=[N+]([O-])c1cc([N+](=O)[O-])c(-c2ccn[nH]2)s1`: the activation was inactive: -72.2%.

As to `COC(=O)C1(C)COP(=O)(N2CCCCCC2)OC1` (stereo not given), the activation was inactive: -2.22%.

Take `CC(C)c1ccc(OP(=O)(Nc2ccccn2)Oc2ccccc2F)cc1` (stereo not given): the activation is inactive: -0.856%.

Take `O=P1(N(CCCl)CCCl)Nc2ccccc2N1`: the activation was inactive: -0.27%.

For the compound `O=P1(N(CCCl)CCCl)OCCCN1CCCl` (stereo not given), the activation was inactive: 0.005%.

With `COc1ccc2nc(NP(=O)(c3ccccc3)c3ccccc3)sc2c1`, the activation is inactive: -0.201%.

Turning to `COc1cc(I)ccc1[As](=O)(O)O`, the activation was inactive: 7.7%.

For the compound `Cc1c2c(nc3ccccc13)SC(C(Cl)Cl)C2` (stereo not given), the activation was inactive: 8.27%.

`O=C(OC1CN2CCC1CC2)C12CC3CC(CC(C3)C1)C2` (stereo not given): the activation is inactive: 9.14%.

Turning to `Cc1cc(=O)[nH]c(N[N+](=O)[O-])n1`, the activation was inactive: 15%.

`O=[N+]([O-])c1cc(Oc2ccc([N+](=O)[O-])cc2C(F)(F)F)cc([N+](=O)[O-])c1`: the activation is inactive: -16.9%.

For `COc1ccc(N/C(=N/P(=O)(N2CCOCC2)N2CCOCC2)N2CCOCC2)cc1`, the activation was inactive: 1.62%.
